Biological target: T1, TrkB (Rattus norvegicus, UniProt Q63604)
T1 construct: expressed in transfected cells; host or cells: HEK293T
Format: binding
Conditions: competition with ^3H-LSD

Chains of the proteins cited; added tags and fusions are not shown. Residues count along the entry.
UniProt Q63604, 32-821: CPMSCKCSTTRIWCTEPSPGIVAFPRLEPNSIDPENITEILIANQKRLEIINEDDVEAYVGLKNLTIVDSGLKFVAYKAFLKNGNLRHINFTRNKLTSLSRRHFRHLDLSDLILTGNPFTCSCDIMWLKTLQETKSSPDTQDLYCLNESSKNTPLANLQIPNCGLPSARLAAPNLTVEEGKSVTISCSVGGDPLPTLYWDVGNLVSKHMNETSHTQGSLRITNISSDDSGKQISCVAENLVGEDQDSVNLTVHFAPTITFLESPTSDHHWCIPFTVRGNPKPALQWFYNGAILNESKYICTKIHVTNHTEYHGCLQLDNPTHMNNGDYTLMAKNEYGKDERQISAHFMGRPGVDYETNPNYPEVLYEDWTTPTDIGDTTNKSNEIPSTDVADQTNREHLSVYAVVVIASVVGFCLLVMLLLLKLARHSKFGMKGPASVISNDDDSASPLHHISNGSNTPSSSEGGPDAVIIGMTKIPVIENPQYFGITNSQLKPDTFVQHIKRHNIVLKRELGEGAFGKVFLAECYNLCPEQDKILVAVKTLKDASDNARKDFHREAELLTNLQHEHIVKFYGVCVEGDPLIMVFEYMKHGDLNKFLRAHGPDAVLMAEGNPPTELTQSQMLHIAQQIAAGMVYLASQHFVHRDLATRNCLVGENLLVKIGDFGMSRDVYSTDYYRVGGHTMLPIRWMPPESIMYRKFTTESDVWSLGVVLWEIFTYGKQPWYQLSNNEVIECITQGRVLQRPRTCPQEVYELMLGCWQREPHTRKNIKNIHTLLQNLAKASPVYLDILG

With CNCCC(Oc1ccc(C(F)(F)F)cc1)c1ccccc1 (centres unmarked) [fluoxetine] the “Bmax (best-fit, 1b)” value was 88.95 and the “h (best-fit, 1b)” value was -0.8265.

Source: publication PMC10244169, “Psychedelics promote plasticity by directly binding to BDNF receptor TrkB” (Nature Neuroscience, 2023)
